Earlier results on one substance are cited in patent US20260038709A1 (priority 2020, published 2026).

For data set [1] the following is noted: prior art; cited from earlier work.
For data set [2] the following is noted: prior art; cited from earlier work. The source holds these as a separate data set.

For fluoroketone (C5F10O), the Boiling point in data set [1] is 26.5 °C. Also, the “Acute inhalation toxicity (LC50 4 h)” value in data set [2] was “about 20,000 ppmv”.
